This passage reports IC50 results from ChEMBL document CHEMBL1152236 (Bioorg Med Chem, 2008).

The assay concerns the target Carbonic anhydrase 2 (Homo sapiens, UniProt P00918). The experiment in a line: Inhibition of human carbonic anhydrase 2 esterase activity by spectrophotometry.

As for `CC(=O)Oc1ccccc1C(=O)O` [ASPIRIN], inhibition was half-maximal at 1.16 mM (IC50).
